The source of these data is PubChem BioAssay AID624256 (NMMLSC, 2012).

Molecules are shown by their SMILES. Only a part is listed here, and it is no random draw. Activity calls are given as the source filed them.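 Rule for the calls: active = normalized GFP-positive differentiation at or above the plate's own cutoff, the solvent-only control mean plus 3 SD; inconclusive = no clear call, values can overlap the other calls; inactive = the rest.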

A short description of this test: HoxA9-arrested leukemia cell differentiation promoters – flow cytometry, MLPCN library, primary screen (AID 624256).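 For normalized GFP-positive differentiation: cells exposed to compound for four days before flow analysis; 0% = DMSO wells and 100% = fulvestrant positive control at 5 µM.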 The settings on record: ER-HoxA9 myeloid progenitors, lysozyme-GFP differentiation, at 10 µM; active compounds read high. Background: In flow cytometry, cells or beads pass a laser one at a time.
As to `CN1CCC(Nc2ccc(Cl)cc2)CC1`, the normalized GFP-positive differentiation result was “inactive”.

Consider `COc1cccc(C(c2nnnn2C2CCCC2)N2CCC(n3c(=O)[nH]c4ccccc43)CC2)c1OC` (stereo not given), for which the normalized GFP-positive differentiation entry is “inactive”.

As for `COc1cc(OC)cc(C(=O)NCC2(N3CCOCC3)CCCCC2)c1`, the normalized GFP-positive differentiation entry is “inactive”. Under `COc1cccc(C(=O)N(c2cc(C)cc(C)c2)C2CCN(C(=O)OC(C)(C)C)CC2)c1` stands “inactive”; under `CCC(CO)(C(=O)OC1CN2CCC1CC2)c1ccccc1` (stereo not given), “inactive”; under `O=C(O)C1(Nc2ccccc2)CCN(Cc2ccccc2)CC1`, “inactive”. The value for `NN(c1ccccc1)C1CCN(CCc2ccccc2)CC1` was “inactive”; that for `CC(C)(C)OC(=O)N1CCC(Nc2ccccc2)CC1` was “inactive”. The value for `CCCOc1ccc(C(=O)NCC2(N(C)C)CCCCC2)cc1` was “inactive”; that for `O=c1[nH]c2ccccc2n1C1CCN(C(c2cc3ccccc3o2)c2nnnn2C2CCCC2)CC1` (stereo not given) was “inactive”.

With `CN1CCC(Nc2ccc(F)c(Cl)c2)CC1`, the normalized GFP-positive differentiation result is “inactive”.

As to `CCOc1ncccc1C(=O)NCC1(N2CCOCC2)CCCCC1`, the normalized GFP-positive differentiation entry is “inactive”. In the case of `Cn1c(=O)[nH]cc(N(CCCl)CCCl)c1=O`, the normalized GFP-positive differentiation entry is “inactive”. Turning to `CN(C)c1ccc(C(=O)NCC2(N3CCCCC3)CCCCC2)cc1`, the normalized GFP-positive differentiation entry is “inactive”. As to `O=C(NCC1(N2CCCCC2)CCCCC1)c1ccco1`, the normalized GFP-positive differentiation result is “inactive”. Under `CC(C)(C)n1nnnc1C(c1ccnc2ccccc12)N1CCC(n2c(=O)[nH]c3ccccc32)CC1` (stereo not given) stands “inactive”; under `COc1ccc(C(c2nnnn2C2CCCCC2)N2CCC(n3c(=O)[nH]c4ccccc43)CC2)cc1` (stereo not given), “inactive”; under `CCN1CCC(Nc2cccc(F)c2)CC1`, “inactive”.

On to `Cc1ccccc1NC1(C#N)CCN(Cc2ccccc2)CC1`, for which the normalized GFP-positive differentiation result was “inactive”. Take `Fc1ccccc1NC1CCN(Cc2ccccc2)CC1`: the normalized GFP-positive differentiation result was “inactive”. The value for `Cc1ccc(C(=O)NCC2(N3CCCCC3)CCCCC2)o1` was “inactive”; that for `Cc1ccc(NC2(C#N)CCN(Cc3ccccc3)CC2)cc1` was “inactive”.

As for `CCC(c1nnnn1C1CCCCC1)N1CCC(n2c(=O)[nH]c3ccccc32)CC1` (stereo not given), the normalized GFP-positive differentiation entry is “inactive”. Turning to `CC(=O)N(c1ccccc1)C1CCNCC1`, the normalized GFP-positive differentiation result was “inactive”. Consider `COc1cccc(C(c2nnnn2C2CCCCC2)N2CCC(n3c(=O)[nH]c4ccccc43)CC2)c1OC` (stereo not given), for which the normalized GFP-positive differentiation result was “inactive”. The value for `O=c1[nH]c2ccccc2n1C1CCN(C(c2ccnc3ccccc23)c2nnnn2C2CCCCC2)CC1` (stereo not given) was “inactive”. As for `COc1cc(OC)cc(C(=O)NCC2(N3CCCCC3)CCCCC2)c1`, the normalized GFP-positive differentiation entry is “inactive”. The value for `CC(C)(C)n1nnnc1C(c1cccc2ccccc12)N1CCC(n2c(=O)[nH]c3ccccc32)CC1` (stereo not given) was “inactive”; that for `CN(C)C1(CNC(=O)c2cccc(C#N)c2)CCCCC1` was “inactive”; that for `O=c1[nH]c2ccccc2n1C1CCN(C(c2ccccc2)c2nnnn2C2CCCC2)CC1` (stereo not given) was “inactive”.

Regarding `CCCN1CCC(Nc2cc(OC)cc(OC)c2)CC1`, the normalized GFP-positive differentiation result was “inactive”. Under `c1ccc(CN2CCC(Nc3ccccc3)CC2)cc1` stands “inactive”. Take `N#Cc1ccc(C(=O)NCC2(N3CCCCC3)CCCCC2)cc1`: the normalized GFP-positive differentiation result was “inactive”.

In the case of `CC(C)(C)OC(=O)N1CCC(N(C(=O)c2ccccc2)c2ccc(Cl)cc2)CC1`, the normalized GFP-positive differentiation entry is “inactive”.

In the case of `O=c1[nH]c2ccccc2n1C1CCN(C(c2cccs2)c2nnnn2C2CCCC2)CC1` (stereo not given), the normalized GFP-positive differentiation result was “inactive”. In the case of `O=C(OC1CN2CCC1CC2)C1c2ccccc2C=Cc2ccccc21` (stereo not given), the normalized GFP-positive differentiation entry is “inactive”. The value for `CCCCn1nnnc1C(c1cccc(OC)c1OC)N1CCC(n2c(=O)[nH]c3ccccc32)CC1` (stereo not given) was “inactive”; that for `COc1cccc(C(c2nnnn2C(C)(C)C)N2CCC(n3c(=O)[nH]c4ccccc43)CC2)c1OC` (stereo not given) was “inactive”; that for `N/C(=N\O)c1c(N)no[n+]1[O-]` was “inactive”. Regarding `O=c1[nH]c2ccccc2n1C1CCN(C(c2cccs2)c2nnnn2C2CCCCC2)CC1` (stereo not given), the normalized GFP-positive differentiation entry is “inactive”. Under `O=c1[nH]c2ccccc2n1C1CCN(C(c2ccnc3ccccc23)c2nnnn2C2CCCC2)CC1` (stereo not given) stands “inactive”. In the case of `COc1ccc(C(=O)NCC2(N3CCOCC3)CCCCC2)cc1OC`, the normalized GFP-positive differentiation result was “inactive”. Take `COc1cc(C(=O)NCC2(N3CCOCC3)CCCCC2)cc(OC)c1C`: the normalized GFP-positive differentiation entry is “inactive”.

For the compound `CCCCn1nnnc1C(c1ccccc1)N1CCC(n2c(=O)[nH]c3ccccc32)CC1` (stereo not given), the normalized GFP-positive differentiation result was “inactive”. On to `O=C(NCC1(N2CCOCC2)CCCCC1)c1cc(Br)ccc1Cl`, for which the normalized GFP-positive differentiation entry is “inactive”. As for `COc1ccc(C(c2nnnn2C2CCCC2)N2CCC(n3c(=O)[nH]c4ccccc43)CC2)cc1` (stereo not given), the normalized GFP-positive differentiation result is “inactive”. `CCCOc1ccc(C(=O)NCC2(N(C)C)CCCCC2)cc1OC`: the normalized GFP-positive differentiation result was “inactive”. The value for `Cc1ccc(C(=O)NCC2(N(C)C)CCCCC2)o1` was “inactive”; that for `O=C(NCC1(N2CCCCC2)CCCCC1)c1cncc(Br)c1` was “inactive”.

For `CN1CCC(Nc2cccc(F)c2)CC1`, the normalized GFP-positive differentiation result is “inactive”. Under `O=C(NCC1(N2CCOCC2)CCCCC1)c1cc(F)c(F)cc1Cl` stands “inactive”; under `CCC(c1nnnn1C(C)(C)C)N1CCC(n2c(=O)[nH]c3ccccc32)CC1` (stereo not given), “inactive”. Under `COc1cc(OC)c(C(=O)NCC2(N(C)C)CCCCC2)cc1OC` stands “inactive”; under `CCCCn1nnnc1C(c1ccnc2ccccc12)N1CCC(n2c(=O)[nH]c3ccccc32)CC1` (stereo not given), “inactive”; under `CC(C)c1ccc(NC2CCN(C(=O)OC(C)(C)C)CC2)cc1`, “inactive”. Take `CCCCn1nnnc1C(c1ccccc1OC(F)(F)F)N1CCC(n2c(=O)[nH]c3ccccc32)CC1` (stereo not given): the normalized GFP-positive differentiation entry is “inactive”. Regarding `CN(C)c1cccc(C(=O)NCC2(N3CCCCC3)CCCCC2)c1`, the normalized GFP-positive differentiation result is “inactive”.

For the compound `COc1ccc(CN(CCCl)CCCl)cc1Cl`, the normalized GFP-positive differentiation result is “inactive”. Under `COc1cc(C(=O)NCC2(N3CCCCC3)CCCCC2)ccc1OC(F)F` stands “inactive”; under `O=C(NCC1(N2CCOCC2)CCCCC1)c1cc(=O)[nH]c2ccccc12`, “inactive”; under `CCCCn1nnnc1C(c1cccc2ccccc12)N1CCC(n2c(=O)[nH]c3ccccc32)CC1` (stereo not given), “inactive”. The value for `CN1CCN(CCOC(=O)C(O)(c2ccccc2)c2ccccc2)CC1` was “inactive”; that for `COc1ccc(NC2CCN(C(=O)OC(C)(C)C)CC2)cc1` was “inactive”.

Turning to `CC(C)c1ccc(C(=O)NCC2(N3CCOCC3)CCCCC2)cc1`, the normalized GFP-positive differentiation entry was “inactive”. On to `O=C(NCC1(N2CCCCC2)CCCCC1)c1cccc(C(F)(F)F)c1`, for which the normalized GFP-positive differentiation entry is “inactive”. The value for `N#CC1(Nc2ccccc2)CCN(CCc2ccccc2)CC1` was “inactive”. The value for `O=c1[nH]c2ccccc2n1C1CCN(C(c2ccccc2OC(F)(F)F)c2nnnn2C2CCCC2)CC1` (stereo not given) was active: 27.9%; that for `CCN1CCC(Nc2ccc(Cl)cc2)CC1` was “inactive”.

On to `CSc1ccc(C(=O)NCC2(N3CCOCC3)CCCCC2)cc1`, for which the normalized GFP-positive differentiation entry is “inactive”. Under `O=C(NCC1(N2CCCCC2)CCCCC1)c1cccc([N+](=O)[O-])c1` stands “inactive”.
